From patent US12202827B2, “Aldosterone synthase inhibitor” (DAMIAN PHARMA AG, priority 2016, dated 2025)

Details: 40° C./75% RH; 6 months

Assay by HPLC, anhydrous, solvent free: 99.2
Compound: N#Cc1ccc([C@H]2CCCc3cncn32)cc1.O=P(O)(O)O
